Yeast mating assay 1: variants of the scFv Ab-14

Data: MIT Lincoln Laboratory AlphaSeq set, Engelhart et al. 2022, doi:10.1038/s41597-022-01779-4, as distributed in FLAb.

Target: peptide PDVDLGDISGINAS, taken from heptad repeat 2 (HR2) of SARS-CoV-2 spike.

Parent scFv Ab-14: VH joined to VL by a 15-residue (Gly4Ser)3 linker. Changes lie in the heavy chain CDRs alone.
VH: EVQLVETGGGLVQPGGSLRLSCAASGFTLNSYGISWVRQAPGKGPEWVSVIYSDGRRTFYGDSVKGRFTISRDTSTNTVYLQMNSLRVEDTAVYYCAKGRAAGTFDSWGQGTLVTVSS
VL: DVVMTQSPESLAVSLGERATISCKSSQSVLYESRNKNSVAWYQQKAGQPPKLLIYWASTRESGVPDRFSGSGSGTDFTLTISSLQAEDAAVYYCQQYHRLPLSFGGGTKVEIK

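In library AAYL49, one, two or three CDR residues were substituted; doubles and triples were drawn at random. In AlphaSeq, yeast of one mating type display the scFv and yeast of the other type display the target. The frequency of each diploid, read from paired DNA barcodes, reflects how well the two displayed proteins bind. A regression on co-assayed BCL2-family reference pairs converts the normalised counts of each replicate to an apparent Kd. Mating was done three times.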

Each variant is given by its three heavy chain CDRs, as the data file delimits them; those of the parent are GFTLNSYGIS, VIYSDGRRTFYGDSVK, GRAAGTFDS. Every variant below is changed at T28 of the VH (sequential numbering). Scale: log10 of Kd in nM, estimated from mating counts; low values are strong binders. Replicates are averaged; those with no signal do not enter the mean. "ND" means that the variant was in the library but no mating with the target was seen in that replicate; the authors take this as a sign of poor binding, and no number exists. As a blank, each scFv also met three strains without target: over library AAYL49, 15% of these pairings were detected, typically at 4.06 and seldom below 2.83.

Variant AFQLNSYGIS | VIYSDGRRTFYGDSVK | GRAAGLFDS showed ND, 4.93, 5.98 (mean 5.46). With GFCLNIYGIS | VIYSDGRRTFYGDSVK | GRAGGTFDS the result was 1.91, ND, ND. Variant GFDLNSYGIS | VIYSDGRRTFYGDSVK | GRAAGWFDS showed ND, ND, ND. Variant GFKLNSYGIS | VIYSDGRRQFYGDSGK | GRAAGTFDS showed ND, 2.16, ND. For GFELNSYGIS | VIYSDGRRTFYGDSVK | GRAAGTEDI, the assay gave ND, ND, ND. With GFKLNSYGIS | VIYSDGRRTCYGDSVK | GRAAGTFDS the result was 3.09, 3.04, 3.80 (mean 3.31). Variant GFWSNSYGIS | VIYSDGRRTFYGDSVK | GRHAGTFDS gave 4.00, ND, 5.20 (mean 4.60).

Variant GFNLNSYGIS | VIKSDGRRKFYGDSVK | GRAAGTFDS showed ND, ND, ND. Variant GFLLNSYGIS | VIYSDGRRTFDGDSVK | GRAFGTFDS showed ND, ND, ND. Variant GFHLRSYGNS | VIYSDGRRTFYGDSVK | GRAAGTFDS showed ND, ND, ND. For GFQLNSYGIS | VIYSDGRRTFYGDSVK | GRNAGTFDS, the assay gave 0.37, 0.61, 0.56 (mean 0.51). For GFKLNSYGIS | VIYSDGRKTFYGVSVK | GRAAGTFDS, the assay gave ND, ND, 5.45. With YFILNSYGIS | VIYSDIRRTFYGDSVK | GRAAGTFDS the result was ND, ND, ND. Variant GFSLNSYAIS | VIYSDGRRTFYGDSVK | GRAAGTFDS gave ND, ND, 4.28.

For GFDLNSYGIS | VIYSDGRRTFYQDSVK | GRAAGLFDS, the assay gave 0.96, 1.03, 0.88 (mean 0.96). With GFSLNSYGIS | VIYSDGRYTFYGDSVK | GRAAGTFDS the result was 3.10, 3.07, 3.26 (mean 3.14). For GFALNSYKIS | VIYSDGRGTFYGDSVK | GRAAGTFDS, the assay gave ND, ND, ND. For GFQLNSYGIS | HTYSDGRRTFYGDSVK | GRAAGTFDS, the assay gave ND, ND, ND. Variant GFHLNSYGYS | VIYSDGRRTFYGDSVK | GRAAGTFKS showed ND, ND, ND. Variant YFELNSYGIS | VIYSDGRRAFYGDSVK | GRAAGTFDS showed ND, ND, ND. With GFFLNSYGIS | VIYSDGRRTFFGDSVK | GCAAGTFDS the result was 4.30, 4.03, 5.33 (mean 4.55).

With GFPLNSYGIS | VIYSDGRRTFYGDSRK | GRAAGTFPS the result was ND, 4.71, ND. With GFHLNSYGIS | VIYSDGRRTFYGDSVK | GRAAGTFDS the result was 1.21, 1.48, 1.51 (mean 1.40). Variant GFELNSYGIS | VIYSDGRRCFYGDSVK | GRAAGQFDS gave 0.53, 0.86, 0.92 (mean 0.77). Variant GFILNKYGIS | YIYSDGRRTFYGDSVK | GRAAGTFDS showed 3.20, ND, 3.79 (mean 3.50). Variant GFDLNSYGIS | VIYSDGRRTFYGDSVK | GRAAGTFDS gave 1.11, 1.29, 0.98 (mean 1.13). For GFVLNSYGIE | VIYSDGRRTFHGDSVK | GRAAGTFDS, the assay gave ND, 3.18, ND. Variant GFYLNSYGIS | HIYGDGRRTFYGDSVK | GRAAGTFDS showed ND, ND, ND.

Variant GFILNSYGGS | VIYSDGRRTFYGDSVK | GRAAGTFIS showed ND, 5.07, 4.42 (mean 4.74). Variant GFWLNSYGIS | VIYSDGRRTFYGFSVK | GRAAGTFYS gave ND, ND, ND. For GFVLNSYGIS | VIYSDGRRVFYGDSVM | GRAAGTFDS, the assay gave 3.82, 4.68, 2.33 (mean 3.61). Variant GFHLNSYGIS | VIYSDGRGTFYGDSVD | GRAAGTFDS gave ND, ND, ND. Variant GFLLHSYGIS | VIYSDGRRTFAGDSVK | GRAAGTFDS showed 6.58, 3.77, ND (mean 5.18). Variant GFCLNSYGIS | VIYSDGCRTFYGDSVK | GRAAHTFDS showed 4.17, ND, ND. Variant TRKLNSYGIS | VIYSDGRRTFYGDSVK | GRAAGTFDS showed ND, ND, ND.

Variant PFDLNSYGIS | VIYSDGRRTFIGDSVK | GRAAGTFDS gave 2.43, 2.20, ND (mean 2.31). Variant GFLLNSYGIS | VIYSDGRATFYGDSVK | GRAAGTFDS showed ND, 3.39, 5.20 (mean 4.30).

The closing 3 entries, repeated:

| CDR-H1 | CDR-H2 | CDR-H3 | log10 Kd, replicates | mean log10 Kd (nM) |
|---|---|---|---|---|
| TRKLNSYGIS | VIYSDGRRTFYGDSVK | GRAAGTFDS | ND, ND, ND | ND |
| PFDLNSYGIS | VIYSDGRRTFIGDSVK | GRAAGTFDS | 2.43, 2.20, ND | 2.31 |
| GFLLNSYGIS | VIYSDGRATFYGDSVK | GRAAGTFDS | ND, 3.39, 5.20 | 4.30 |

Parent in this assay: reference entry 0.65, copy in this library 4.11 (one replicate of three).